Reference: PubChem BioAssay AID652010 (The Scripps Research Institute Molecular Screening Center, 2013)
This is a selection; strong and weak results do not stand in their true shares. Activity calls are given as the source filed them.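 How the source made its calls: active means inhibition above the mean over all tested compounds plus 3 SD (cut at about 3.6% in these data); inactive means the rest.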

Experiment: DAX1 (NR0B1) inhibitors on StAR promoter, primary screen, cell-based, luminescence, SF-1 (NR5A1), full-length DAX-1 (AID 652010);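 further: 0% = DAX-1 cells with DMSO and 100% = cells lacking DAX-1 with DMSO; higher inhibition means more luminescence from relief of DAX-1 repression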
Conditions: HEK293T StAR-luciferase reporter, SF-1/DAX-1 repression relief; at 6.8 µM; active compounds read high
With `CCC(=O)N(c1ccccc1)C1(COC)CCN(CCc2cccs2)CC1` the inhibition was inactive: 1.98%. In the case of `CCC(=O)N(c1ccccc1)C1(COC)CCN(CCn2nnn(CC)c2=O)CC1`, the inhibition is reported as inactive: -0.11%.
